Biological target: potassium channels (Cavia porcellus, UniProt A0A286XYR9)
Experiment: Membrane hyperpolarization (MHP) assay in primary cultured guinea-pig urinary bladder (GPB) cells, DiBAC(4)3 FLIPR
Type: cell-based
Conditions: concentration that elicits 50% of the maximal response for the test sample
Method: Determination of Potassium Channel Opening Activity Membrane Hyperpolarization Assays Compounds were evaluated for potassium channel opening activity using the rat thoracic aorta smooth muscle AI 0 cell line or primary cultured guinea-pig urinary bladder (GPB) cells. The AI0 cell line was purchased from the American Type Culture Collection (Rockville, MD; Cat # 30-2002). […] Louis, MO) and 0.2 mg/mL ronase (Calbiochem, La Jolla, CA) with continuous stirring in a cell incubator for 30 minutes. The mixture was then centrifuged at 1300 x g for 5 minutes, and the pellet resuspended in Dulbecco's PBS (GIBCO, Gaithersburg, MD) and recentrifuged to remove residual enzyme. […] Functional activity at potassium channels was measured by evaluating changes in membrane potential using the bis-oxonol dye DiBAC(4)3 (Molecular Probes) in a 96-well cell-based kinetic assay system, Fluorescent Imaging Plate Reader (FLIPR) (K.S. Schroeder et al., J. Biomed. Screen., v. I pp. 75-81 (1996)). […] With increasing membrane potential (for example, K+depolarization), the probe further partitions into the cell; this is measured as an increase in fluorescence due to dye interaction with intracellular lipids and proteins. Conyersely, decreasing membrane potential (hyperpolarization by potassium channel openers) evokes a decrease in fluorescence. […] Changes in fluorescence were monitored for an additional 25 minutes. […]

The chains behind the UniProt entries cited, without tags or fusion partners. Residues count along the entry.
UniProt A0A286XYR9, 1-1546: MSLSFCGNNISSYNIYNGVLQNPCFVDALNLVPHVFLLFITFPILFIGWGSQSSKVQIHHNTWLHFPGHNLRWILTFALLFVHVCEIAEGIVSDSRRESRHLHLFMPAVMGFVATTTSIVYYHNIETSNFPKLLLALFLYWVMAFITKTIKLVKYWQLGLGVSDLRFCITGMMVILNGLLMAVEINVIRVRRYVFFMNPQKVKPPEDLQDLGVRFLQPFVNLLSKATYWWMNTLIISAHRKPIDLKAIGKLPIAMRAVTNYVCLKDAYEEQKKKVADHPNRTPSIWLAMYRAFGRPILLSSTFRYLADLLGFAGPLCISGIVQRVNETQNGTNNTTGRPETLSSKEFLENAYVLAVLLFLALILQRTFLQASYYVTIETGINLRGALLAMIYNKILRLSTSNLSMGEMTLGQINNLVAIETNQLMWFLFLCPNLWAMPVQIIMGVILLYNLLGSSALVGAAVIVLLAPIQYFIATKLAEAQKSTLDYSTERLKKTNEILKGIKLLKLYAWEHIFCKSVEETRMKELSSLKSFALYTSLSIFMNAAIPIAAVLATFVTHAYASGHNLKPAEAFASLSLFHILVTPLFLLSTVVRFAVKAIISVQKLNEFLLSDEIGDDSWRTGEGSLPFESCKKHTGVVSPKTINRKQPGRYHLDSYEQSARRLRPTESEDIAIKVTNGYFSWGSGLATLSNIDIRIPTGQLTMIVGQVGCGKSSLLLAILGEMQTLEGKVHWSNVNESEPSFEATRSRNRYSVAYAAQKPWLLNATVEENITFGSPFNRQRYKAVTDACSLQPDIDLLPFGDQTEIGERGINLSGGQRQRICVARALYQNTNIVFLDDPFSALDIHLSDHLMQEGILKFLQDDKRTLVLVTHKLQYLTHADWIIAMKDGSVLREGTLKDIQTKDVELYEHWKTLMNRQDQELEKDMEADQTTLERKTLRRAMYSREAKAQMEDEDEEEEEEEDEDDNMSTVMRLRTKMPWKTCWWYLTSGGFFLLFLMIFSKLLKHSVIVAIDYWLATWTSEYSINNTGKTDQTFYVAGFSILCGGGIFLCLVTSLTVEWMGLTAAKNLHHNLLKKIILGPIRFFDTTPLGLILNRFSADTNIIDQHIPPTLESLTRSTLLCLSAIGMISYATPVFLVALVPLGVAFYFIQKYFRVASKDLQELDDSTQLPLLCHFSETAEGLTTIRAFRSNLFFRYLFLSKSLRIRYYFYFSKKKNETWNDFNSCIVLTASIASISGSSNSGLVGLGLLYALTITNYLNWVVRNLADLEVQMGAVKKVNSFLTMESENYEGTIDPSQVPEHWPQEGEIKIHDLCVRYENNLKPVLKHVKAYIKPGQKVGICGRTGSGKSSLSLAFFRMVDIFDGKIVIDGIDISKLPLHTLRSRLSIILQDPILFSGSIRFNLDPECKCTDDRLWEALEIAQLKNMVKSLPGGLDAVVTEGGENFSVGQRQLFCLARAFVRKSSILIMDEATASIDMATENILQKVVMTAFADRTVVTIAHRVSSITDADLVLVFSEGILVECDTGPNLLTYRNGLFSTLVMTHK

**Q.** How did the EC50 turn out when “8-(3-bromo-4-fluorophenyl)-6-trifluoromethyl-5,8-dihydrothiopyrano[3 .2-b]pyridine, 1,1-dioxide [Example 159]” was run?
**A.** 320 nM

From US6593335B1, “Potassium channel openers” (Abbott Laboratories, priority 1997, dated 2003)
